Test system: H. pluvialis
Assay: Effect of MNNG dose and treatment time on cell survival rate

MNNG
cell death / survival rate (100 μg mL^−1 MNNG for 5 or 10 min): did not cause significant cell death
survival rate (100 μg mL^−1 MNNG, 15 min): ca. 70%
survival rate (100 μg mL^−1 MNNG, 30 min): < 30%
survival rate (100 μg mL^−1 MNNG, 60 min): around 20%
survival rate (1,000 μg MNNG mL^−1, 30 min): ca. 1%

Reference: patent US20090214475A1, “Extractability and Bioavailability of the Natural Antioxidant Astaxanthin From a Green Alga, Haematococcus Pluvialis” (published 2009)
